Assay results from article PMC4161151 (Journal of Medicinal Chemistry, 2014).
In brackets after ≈: the same amount, converted by molar mass.

Assay: Kinetic solubility, 96-well plate assay
Type: physicochemical
Settings: phosphate buffer, pH 7.4

Q: For CC(C)[C@@H](CN1CC[C@@](C)(c2cccc(F)c2)[C@@H](C)C1)NC(=O)[C@H]1Cc2ccc(O)cc2CN1 [Compound 5, (3R)-N-[(1S)-1-{[(3R,4R)-4-(3-Fluorophenyl)-3,4-dimethylpiperidin-1-yl]methyl}-2-methylpropyl]-7-hydroxy-1,2,3,4-tetrahydroisoquinoline-3-carboxamide], which solubility at 90 min is on record?
A: 10 µM (≈ 4.68 µg/mL)
